Values of other authors in US20200319191A1 (published 2020).

Compound	response by EGFR secondary mutation (T790M in exon 20)	sensitivity by EGFR gain-of-function mutations (in-frame deletions in exon 19 or point mutations in exon 21)	response by EGFR protein expression (non-small cell lung cancer patients overexpressing EGFR protein)	clinical benefit by AREG expression (overexpression of AREG, primary colorectal cancer, KRAS wildtype patients)	clinical outcome by EREG expression (overexpression of EREG, primary colorectal cancer, KRAS wildtype patients)
COc1cc2ncnc(Nc3ccc(F)c(Cl)c3)c2cc1OCCCN1CCOCC1 [gefitinib]	mutation, T790M in exon 20, confers reduced response. Non-small cell lung cancer cancer	point mutations in exon 21, confer sensitivity to first- and second-generation tyrosine	–	–	–
cetuximab	–	–	patients overexpressing EGFR protein have been found to respond to the EGFR	increased clinical benefit from cetuximab in KRAS wildtype patients.	Overexpression of EREG in primary colorectal cancer patients has been related to clinical
